Like-named read-outs stand apart in the source and are kept apart here.

For series [1], the system named is A2780 subcutaneous tumour xenograft. Nature of the series: Efficacy in A2780 subcutaneous tumour xenograft model. It counts as in vivo, Female Balb/c immunodeficient nude mice. The following applies: 6 at 50 mg/kg, 8 at 15 mg/kg, i.p. The protocol: (§1) Compounds: All compounds were provided in powdered form and stored in the −20 °C freezer. They were formulated just before use. […] The drugs were then administered within 10 minutes of initial dilution.
(§2) Animals: Female Balb/c immunodeficient nude mice aged 6–12 weeks were used (Envigo, Blackthorn, UK). Mice were kept in cages housed in isolation cabinets in an air‐conditioned room with regular alternating cycles of light and darkness. They received Teklad 2018 diet (Envigo, Blackthorn, UK) and water ad libitum. […]
(§3) S.c. xenograft tumours: A2780/WT and A2780/cis tumours were excised from a donor animal, placed in sterile physiological saline containing antibiotics and cut into small fragments of approximately 5 mm^3. […] Once the tumours could accurately be measured by callipers, the mice were allocated into groups (control or treated) by restricted randomisation to keep group mean tumour size variation to a minimum, with 3 animals set up per group. […]
(§4) The effects of therapy were assessed by frequent monitoring growth of the tumours and body weight. Two‐dimensional calliper measurements of the tumours were taken, and volumes calculated using the formula (a^2×b)/2, where a is the smaller and b the larger diameter of the tumour. […]

For series [2], the system named is A2780cisR subcutaneous tumour xenograft. Nature of the series: Efficacy in A2780cisR (A2780/cis) subcutaneous tumour xenograft model. In kind it is in vivo, Female Balb/c immunodeficient nude mice. The note with it: 6 at 50 mg/kg, 8 at 15 mg/kg, i.p. The protocol: as §1, §2, §3, §4
For series [3] the following is noted: mice; for Toxicity in MTD run: i.p. The protocol:
as §1
Animals: Female Balb/c immunodeficient nude mice aged 6–12 weeks were used (Envigo, Blackthorn, UK). Mice were kept in cages housed in isolation cabinets in an air‐conditioned room with regular alternating cycles of light and darkness. They received Teklad 2018 diet (Envigo, Blackthorn, UK) and water ad libitum. All animal procedures were carried out under a project licence issued by the UK Home Office and UK National Cancer Research Institute Guidelines for the Welfare of Animals were followed throughout.
(1 picture or pasted object on this page, not shown here)

Consider “(η^6‐p‐cymene)(TPPTS)Ru(Mnt) [Complex 6]”, for which the “Toxicity in xenograft study” value in series [1] and in series [2] was “No toxicity was observed” throughout. Besides, the “maximum tolerated dose (MTD)” value in series [3] (i.p. daily, monitored for a further two weeks) came out at 50 mg/kg. The “Toxicity in MTD run” value in series [3] (20mg/kg, run 2) is reported as “no toxicity was observed”; in series [3] (50mg/kg/dose, whole schedule, final run), “No evidence of toxicity was seen”.
